This is one part of the list. Results with a measured potency or affinity are listed apart. Activity calls are given as the source filed them. No stated cut-off is given here; in the data, active means inhibition above about 50%; inactive means the rest.
Each compound was assayed against Kappa-type opioid receptor (Homo sapiens) (UniProt P41145) (assay: KOR antagonists, beta-arrestin recruitment, cell-based, luminescence, uHTS (AID 1778)). Conditions: antagonist mode, at 10 µM, active compounds read high.

Amino acid sequences for entries named in this document (tags omitted). A change or cut given only in a name is not applied to a line headed by its entry.
UniProt P41145: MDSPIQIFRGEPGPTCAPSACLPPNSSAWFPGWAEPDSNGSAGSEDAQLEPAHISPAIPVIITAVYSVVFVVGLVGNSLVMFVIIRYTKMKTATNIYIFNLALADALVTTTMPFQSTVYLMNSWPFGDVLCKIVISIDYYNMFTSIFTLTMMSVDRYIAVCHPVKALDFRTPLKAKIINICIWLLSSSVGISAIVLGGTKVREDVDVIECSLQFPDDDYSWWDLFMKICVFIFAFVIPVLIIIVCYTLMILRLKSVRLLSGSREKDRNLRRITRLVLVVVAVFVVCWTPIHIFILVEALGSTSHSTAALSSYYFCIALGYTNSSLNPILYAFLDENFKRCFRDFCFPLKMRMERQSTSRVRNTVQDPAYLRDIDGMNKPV

SMILES	inhibition
O=C(O)COc1ccc([As](=O)(O)O)cc1[N+](=O)[O-]	inactive: 14.9%
Nc1ccccc1[As](=O)(O)c1ccccc1	inactive: 19.6%
Cc1nc2ccccc2n1C1CC(=O)N(N(C)C)C1=O (stereo unspecified)	inactive: -9.9%
CC(=O)Nc1nc2ccccc2n1CCN1CCOCC1	inactive: 9.2%
CCOC(=O)C1=C(Cn2cnc3ccccc32)NC(=O)NC1c1ccc(OC)cc1 (stereo unspecified)	inactive: -10.4%
CC(=O)OCCNC(=O)Cn1cnc2c1c(=O)n(C)c(=O)n2C	inactive: 24.6%
Cc1cccc(C)c1NC(=O)Cn1cnc2c(=O)n(C)c(=O)n(C)c21	inactive: -23.7%
CCCCNC(=O)Cn1c(=O)n(C)c2ccccc21	inactive: 8.9%
NC(=O)Nc1ccc([As](=O)(O)O)cc1	inactive: 29.1%
Cn1c(=O)c2c(ncn2CC(=O)N(Cc2ccccc2)c2ccccn2)n(C)c1=O	inactive: 34.8%
CCN(CC)CCn1c(NCc2ccc(C)o2)nc2ccccc21	inactive: 5.6%
O=C(Nc1nc2ccccc2n1CCN1CCCC1)C1CCCCC1	inactive: 16.4%
COc1ccc(N2CCn3c2nc2c3c(=O)n(CCN3CCOCC3)c(=O)n2C)cc1	inactive: -29.4%
CCC(C)NC(=O)Cn1c(COc2ccc(Cl)cc2Cl)nc2ccccc21 (stereo unspecified)	inactive: 1.9%
CCC(C)[C@H](NC(=O)N1CCn2c1nc1ccccc12)C(=O)NCc1ccc(OC)cc1 (stereo partly specified)	inactive: 15%
Cn1c(=O)[nH]c(=O)c2c1ncn2CCN1CCOCC1	inactive: 14.6%
Cc1nn2c3ccccc3n(CCN3CCCCC3)c2nc1=O	inactive: 11.6%
FC(F)(F)c1ccc2c(c1)ncn2C1CCN(Cc2nnnn2C2CCCCC2)CC1	inactive: -25%
CC1Cc2ccccc2N1C(=O)CSc1nc2ccccc2n1CC(=O)N1CCOCC1 (stereo unspecified)	inactive: 21.4%
Nc1nc2ccccc2n1CCN1CCCC1	inactive: 18.8%
CC(C)NC(=S)N1CCn2c(nc3ccccc32)C1	inactive: 27.8%
O=C(CCCCCNC(=O)N1CCn2c1nc1ccccc12)NCc1ccc(Cl)cc1	inactive: -26.1%
COc1ccc(CNC(=O)[C@H](CCSC)NC(=O)N2CCn3c2nc2ccccc23)cc1	inactive: -13.7%
CCOC(=O)c1ccc(N2C(=O)CC(N3CCC(Nc4ccc(F)cc4)CC3)C2=O)cc1 (stereo unspecified)	inactive: 4.7%

SMILES	inhibition
O=C(Cn1cnc2ccccc21)N/N=C/c1ccccc1[N+](=O)[O-]	inactive: -3.2%
O=C(CSc1nc2ccccc2n1CC(=O)N1CCCC1)Nc1nccs1	inactive: 21.8%
O=C(Nc1ccccc1)N1CCn2c1nc1ccccc12	inactive: 22.2%
CCOP1(=S)c2c(C)nn(CCC#N)c2N=C(c2ccc(F)cc2)N1C (stereo unspecified)	inactive: 6.1%
CN(C(=O)Cc1ccccc1)[C@@H]1CC[C@]2(CCCO2)C[C@H]1N1CCCC1	inactive: -1.9%
Cn1c(=O)c2c(nc(CN3CCN(c4ccccc4F)CC3)n2CCN2CCOCC2)n(C)c1=O	inactive: 15.3%
Fc1ccc2c(c1)nnn2C1CCN(Cc2c(Cl)cccc2Cl)CC1	inactive: 31.3%
CC(C)[C@H](NC(=O)N1CCn2c1nc1ccccc12)C(=O)NCc1ccco1	inactive: -30.1%
O=[N+]([O-])c1ccc2c(c1)nnn2O	inactive: 11.2%
Cc1ccc2c(c1)C1CN(C)CCC1N2C(=S)NC(=O)c1ccc(Br)cc1 (stereo unspecified)	inactive: 36.2%
CCc1cccc(C)c1NC(=O)Cn1c(NCCO)nc2ccccc21	inactive: -8.3%
CN1CCN(C(=O)Cn2c(C(F)(F)F)nc3ccccc32)CC1	inactive: 15.1%
c1ccc(Cn2c(CNc3nc4ccccc4n3CCN3CCCCC3)nc3ccccc32)cc1	inactive: -6.1%
O=C(OC1CN2CCC1CC2)c1ccc(Cl)cc1 (stereo unspecified)	inactive: -20.6%
Cn1cccc1/C=N/NC(=O)Cn1cnc2ccccc21	inactive: -13%
CCN(CC)CCn1cnc2c1c(=O)[nH]c(=O)n2Cc1ccccc1	inactive: -2.1%
Cc1ccc(S(=O)(=O)c2nnn3c2nc(NC2CCN(Cc4ccccc4)CC2)c2ccccc23)cc1C	inactive: -27.8%
CN1CCC(N(C)c2nc(-c3ccccc3)nc3ccccc23)CC1	inactive: -34.9%
C[C@H](NC(=O)N1CCn2c1nc1ccccc12)C(=O)NCC1CCCO1 (stereo partly specified)	inactive: 18.6%
CC(C)C(NS(=O)(=O)c1cccc2nsnc12)C(=O)N1CCn2c1nc1ccccc12 (stereo unspecified)	inactive: -36.2%
OCCNc1nc2ccccc2n1CCN1CCCCC1	inactive: 27.6%
Cc1nc2ccccc2n1CC(=O)NCCN1CCOCC1	inactive: 37.3%
O=[As](O)(O)c1cccnc1	inactive: 8.4%
Cn1c(=O)c2c(ncn2CC(=O)N2CCCCCC2)n(C)c1=O	inactive: 14%

SMILES	inhibition
O=C(Cn1cnc2ccccc21)N/N=C/c1cccnc1	inactive: 8.8%
CN(C)C(=O)Cn1c(=O)n(C)c2ccccc21	inactive: -7.3%
CS(=O)(=O)c1ccc(Cl)c(NC(=O)COC(=O)C(O)(c2ccccc2)c2ccccc2)c1	inactive: -21.2%
C(=N\c1nc2ccccc2n1CCN1CCOCC1)/c1cccs1	inactive: -28.7%
Cc1c(Cl)c(C(=O)Nc2nc3ccccc3n2CCN2CCCCC2)nn1C	inactive: 23.3%
CCN(CC)CCn1cnc2c1c(=O)n(CCOC(=O)c1cc(OC)c(OC)c(OC)c1)c(=O)n2C	inactive: 2.2%
C=CCOC(=O)C1=C(C)N=C2SCCC(=O)N2C1/C=C/c1ccccc1 (stereo unspecified)	inactive: -10.8%
Cn1c(=O)c2c(ncn2CCN(CCO)Cc2ccccc2)n(C)c1=O	inactive: 8.8%
O=[As](O)(c1cccc(O)c1)c1cccc(O)c1	inactive: 8.7%
COc1ccc(CNc2nc3ccccc3n2CCN2CCOCC2)cc1	inactive: -22.8%
Cc1cccc(OCC(=O)OC2CN3CCC2CC3)c1 (stereo unspecified)	inactive: -13.1%
CCOC(=O)C1=C(C)N=C2SCCC(=O)N2[C@@H]1/C=C/c1ccccc1	inactive: -0.5%
O=C(Cn1c(-c2cncs2)nc2ccccc21)NC1CCCC1	inactive: 6.9%
N#CCC(=O)N1CCn2c1nc1ccccc12	inactive: 7.1%
O=C(Cn1c(CO)nc2ccccc21)NC1CCCCCC1	inactive: 13.4%
CCN(CC)CCn1c(NCc2cc(OC)ccc2OC)nc2ccccc21	inactive: 17.8%
CCOC(=O)CSc1nc2ccccc2n1CC(=O)NC(C)(C)C	inactive: 17.2%
CC(C(=O)Nc1ccccc1C(=O)O)n1c(C(F)(F)F)nc2ccccc21 (stereo unspecified)	inactive: -6.7%
Cn1c(=O)c2ncn(CC(=O)NCCOc3ccccc3)c2n(C)c1=O	inactive: -28.6%
CCc1ccc(NC(=O)Cn2c3[n+](c4c(F)c(F)ccc42)CCCCC3)cc1	inactive: -22.5%
CC(C)c1ccccc1NC(=O)Cn1c(/C=C/c2ccccc2)nc2ccccc21	inactive: 8.8%
CC(C)(C)NC(=O)Cn1c(-c2nonc2N)nc2ccccc21	inactive: -40.6%
COC(=O)Cn1c(=N)n(CCN2CCCCC2)c2ccccc21	inactive: 9.3%
NNC(=O)Cn1cnc2ccccc21	inactive: 3.1%

SMILES	inhibition
Cc1ccc2c(c1)C1CN(C)CCC1N2C(=O)c1ccccc1NS(=O)(=O)c1cccc(C(F)(F)F)c1 (stereo unspecified)	inactive: -10.2%
Nc1cccc2c([As](=O)(O)O)cccc12	inactive: 13.2%
O=C(Cn1c(CO)nc2ccccc21)NCCc1ccccc1	inactive: 11.1%
Cc1ccc(NCCc2c([N+](=O)[O-])cc([N+](=O)[O-])cc2[N+](=O)[O-])cc1	inactive: 5.6%
CCCCC(=O)Nc1ccc2c(c1)nc1n2CCN(CCOC)C1	inactive: 11.1%
Cn1c(=O)c2c(ncn2CC(=O)Nc2cc(Cl)c(Cl)cc2Cl)n(C)c1=O	inactive: 12.1%
O=C(Cn1c(C(F)(F)F)nc2ccccc21)Nc1ccccc1N1CCOCC1	inactive: -12.9%
CCCOP(=S)(Nc1nc(N)cc(=O)[nH]1)OCCC	inactive: -6.1%
O=C(CSc1nc2ccccc2n1CC(=O)N1CCOCC1)N1CCCC1	inactive: 16%
CCN(CC)CCCNC(=S)N1CCn2c(nc3ccccc32)C1	inactive: -9.2%
Cn1c(=O)n(CCc2ccccc2)c(=O)c2c1nc1n2CCN1Cc1ccco1	inactive: 13.7%
C[C@H](NC(=O)N1CCn2c1nc1ccccc12)C(=O)NCc1ccc(F)cc1	inactive: -15.6%
CSCC[C@H](NC(=O)N1CCn2c1nc1ccccc12)C(=O)N1CCCCC1	inactive: -66.7%
O=C(Cn1c(-c2ccccn2)nc2ccccc21)N/N=C/c1ccccn1	inactive: -9.6%
O=C(CCCCCNC(=O)N1CCn2c1nc1ccccc12)NCc1ccccc1Cl	inactive: -15.1%
O=C(Cn1c(NCCO)nc2ccccc21)NCC1CCCO1 (stereo unspecified)	inactive: 5.3%
O=C(Cn1c(S(=O)(=O)Cc2ccccc2)nc2ccccc21)N1CCCCC1	inactive: -12.7%
COCCN1CCn2c(nc3cc(NC(=O)c4cccs4)ccc32)C1	inactive: 3.7%
Cn1c(=O)n(CC(N)=O)c2ccccc21	inactive: -21.1%
CCN(CC)CCn1c(NC(=O)c2ccc(Cl)cc2)nc2ccccc21	inactive: 8.3%
COc1ccc(CNC(=O)[C@H](C)NC(=O)N2CCn3c2nc2ccccc23)cc1	inactive: -45.3%
COc1cccc(CNC(=O)[C@H](CC(C)C)NC(=O)N2CCn3c2nc2ccccc23)c1	inactive: 6.6%
CCOP(=O)(Nc1cccc2ccccc12)OCC	inactive: -7.8%
COc1cccc(CNc2nc3ccccc3n2CCN2CCCCC2)c1	inactive: 23.7%
